Target: human GPR40 receptor (Homo sapiens, UniProt O14842)
Experiment: IP1 accumulation measurements using the IPOne assay system
Type: cell-based
Conditions: 1321N1 cells stably expressing human GPR40 receptor; stimulated 1 h at 37° C.
Procedure: IP1 is assayed according to the manufacturers description (Cisbio Bioassays, France). In brief, the assay is started by substitution of the culture medium by stimulation buffer (Hepes 10 mM, CaCl2 1 mM, MgCl2 0.5 mM, KCl 4.2 mM, NaCl 146 mM, glucose 5.5 mM and LiCl 50 mM, pH 7.4). Cells are stimulated for 1 h at 37° C., 5% CO2 by addition of the compounds that are diluted in stimulation buffer containing LiCl. Assays are stopped by adding HTRF-conjugates (IP1-d2 and Anti-IP1 cryptate Tb) and lysis buffer, provided by the manufacturer. After an incubation time of 1 h at room temperature plates are measured using an EnVision™, Perkin Elmer. The obtained fluorescence ratios at 665/615 […] are then used to calculate the pEC50 values using Assay Explorer 3.3 Software (Accelrys, Inc.) by interpolation using an IP1 reference curve and subsequent sigmoidal curve fitting allowing for a variable hill slope.

The chains behind the UniProt entries cited, without tags or fusion partners.
UniProt O14842, whole entry: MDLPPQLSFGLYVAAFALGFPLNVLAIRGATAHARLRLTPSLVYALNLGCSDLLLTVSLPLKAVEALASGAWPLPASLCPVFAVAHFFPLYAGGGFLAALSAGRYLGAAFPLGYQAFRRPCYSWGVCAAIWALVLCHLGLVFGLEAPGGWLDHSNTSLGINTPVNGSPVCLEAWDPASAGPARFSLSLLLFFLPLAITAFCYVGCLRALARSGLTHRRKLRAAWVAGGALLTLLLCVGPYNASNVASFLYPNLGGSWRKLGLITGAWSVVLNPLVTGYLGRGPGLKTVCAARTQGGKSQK

In order of rising EC50:
1. Cc1cc(-c2cnccn2)cc(C)c1-c1ccc(F)c(CNc2cnc(C3CC3C(=O)O)cn2)c1 (single isomer, unassigned)  14 nM
2. Cc1cc(OCc2ccccc2)cc(C)c1-c1ccc(F)c(CNc2cnc(C3CC3C(=O)O)cn2)c1 (single isomer, unassigned)  23 nM
3. Cc1cc(OC2CCOC2)cc(C)c1-c1ccc(F)c(CNc2cnc(C3CC3C(=O)O)cn2)c1 (stereo not shown) [Example 42]  25 nM
4. Cc1cc(-c2ccnn2C)cc(C)c1-c1ccc(F)c(CNc2cnc(C3CC3C(=O)O)cn2)c1 (single isomer, unassigned)  72 nM
5. Cc1cc(-c2ccn(C)c(=O)n2)cc(C)c1-c1ccc(F)c(CNc2cnc(C3CC3C(=O)O)cn2)c1 (single isomer, unassigned)  278 nM
6. Cc1cnc(-c2cc(C)c(-c3ccc(F)c(CNc4cnc(C5CC5C(=O)O)cn4)c3)c(C)c2)nc1 (single isomer, unassigned)  389 nM
7. Cc1cc(C#N)cc(C)c1-c1ccc(F)c(CNc2cnc(C3CC3C(=O)O)cn2)c1 (single isomer, unassigned)  984 nM

From US10793530B2, “Benzylaminopyrazinylcyclopropanecarboxylic acids, pharmaceutical compositions and uses thereof” (Boehringer Ingelheim International GmbH, priority 2017, dated 2020)
